Tests used:
[1] = biological target: T1, Gamma-aminobutyric acid receptor subunit alpha-1 (Rattus norvegicus, UniProt P62813); experiment: Displacement of [3H]Ro15-1788 from GABAA alpha-1 receptor in Sprague-Dawley rat cerebellar membrane; design: species or system Cerebellum
[2] = biological target: T1, Gamma-aminobutyric acid receptor subunit alpha-1; experiment: Displacement of [3H]Ro15-1788 from GABAA alpha1 receptor in Sprague-Dawley rat cerebral cortex membrane; type: tissue-based

By UniProt entry, the sequences of proteins in these tests, tags left out. Where a name states a change or a piece, a line headed by the entry shows the natural chain unless it says otherwise.
UniProt P62813: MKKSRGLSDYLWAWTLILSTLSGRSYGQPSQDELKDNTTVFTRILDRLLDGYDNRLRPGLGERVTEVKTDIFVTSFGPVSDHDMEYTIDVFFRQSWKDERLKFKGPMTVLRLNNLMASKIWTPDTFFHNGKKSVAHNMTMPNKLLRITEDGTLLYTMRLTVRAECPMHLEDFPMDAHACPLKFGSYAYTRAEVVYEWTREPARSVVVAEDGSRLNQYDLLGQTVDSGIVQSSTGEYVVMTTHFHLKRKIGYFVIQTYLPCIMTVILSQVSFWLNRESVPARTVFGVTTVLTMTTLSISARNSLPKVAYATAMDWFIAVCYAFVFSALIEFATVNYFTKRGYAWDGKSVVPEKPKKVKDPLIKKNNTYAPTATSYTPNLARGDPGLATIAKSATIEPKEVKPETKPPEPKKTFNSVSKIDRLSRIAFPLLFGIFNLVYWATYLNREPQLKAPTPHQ

In the case of `CC(=O)N(C)c1cccc(-c2ccnc3c(C(=O)c4cccs4)cnn23)c1` [INDIPLON], the Ki [1] is reported as 0.55 nM and the Ki [2] is reported as 0.45 nM.
